{"source": "patent US12419858B2", "about": "“Salt of terphenyl compound” (Taiho Pharmaceutical Co., Ltd., priority 2019, dated 2025)", "assay": "Pharmacokinetic (PK) studies in rats", "protocol": "Each drug was administered to the animal at a dose of 32 mg/5 mL/kg."}
{"smiles": "CC(C)(O)Cc1ccc(-c2ccc(C(=O)N3CC[C@H](N)C3)cc2-c2ccc(C#N)c(F)c2)c(F)c1.O=C(O)c1ccccc1", "note": "[benzoic acid salt of Compound A, benzoic acid salt of 4-[5-[(3S)-3-aminopyrrolidine-1-carbonyl]-2-[2-fluoro-4-(2-hydroxy-2-methyl-propyl)phenyl]phenyl]-2-fluoro-benzonitrile]", "values": [{"measurement": "AUC", "setting": "rats, dose of 32 mg/5 mL/kg", "value": 16.13, "unit": "µM·h"}]}
{"smiles": "CC(C)(O)Cc1ccc(-c2ccc(C(=O)N3CC[C@H](N)C3)cc2-c2ccc(C#N)c(F)c2)c(F)c1", "note": "[free form of Compound A, 4-[5-[(3S)-3-aminopyrrolidine-1-carbonyl]-2-[2-fluoro-4-(2-hydroxy-2-methyl-propyl)phenyl]phenyl]-2-fluoro-benzonitrile]", "values": [{"measurement": "AUC", "setting": "rat, in vivo, 32 mg/kg", "value": 16, "unit": "µM·h"}]}
